What was measured:
[1] = molecular target: T1, human 5-HT2A (h5-HT2A) receptor (Homo sapiens, UniProt P28223); test: FLIPR assay, human 5-HT2A receptor under agonist mode; format: cell-based; conditions: 5-HT2A (FLIPR), RFU=Fmax−Fmin
T1 construct: expressed in transfected cells; cultured under G418 and hygromycin B selection
Experimental: I. Assessment of the Effect of Exemplary Compounds of Formula I Targeting on Human 5-HT2A (h5-HT2A) Receptor Under Agonist Mode
• 1. Cells were cultured in cell culture medium (DMEM containing 10% FBS, 1×penicillin-streptomycin 300 μg/ml G418 and 100 μg/ml hygromycin B) at 37° C., 5% (v/v) CO2. • 2. One day before the assays, the cells were detached using TrypLE™ Express and cells were counted using cell counter. Only cells with >85% viability were used for the assay. • 3. 20000 cells/well were seeded in 30 μl/well culture medium to a 384-well cell plate and cells were incubated overnight at 37° C., 5% (v/v) CO2. • 4. On the assay day, 2×dye solution was prepared following the manual of the FLIPR® Calcium 6 Assay Kit: i. The dye was diluted with assay buffer (20 mM HEPES in 1× HBSS, PH7.4); ii. Probenecid was added to the final concentration of 5 mM; iii. Vortex vigorously for 1-2 minutes. • 5. Medium was removed from cell plate by flicking the cell plate on towel papers. • 6. […]
• i. The normalized fluorescence reading (RFU) was calculated as shown below, where Fmax and Fmin stand for maximum and minimum of calcium signal during defined time window: RFU=Fmax−Fmin. • ii. […]
Exemplary compounds of Formula I were evaluated functionally using FLIPR assay for their effect on h5-HT2A receptor under agonist mode.

The chains behind the UniProt entries cited, without tags or fusion partners.
UniProt P28223, whole entry: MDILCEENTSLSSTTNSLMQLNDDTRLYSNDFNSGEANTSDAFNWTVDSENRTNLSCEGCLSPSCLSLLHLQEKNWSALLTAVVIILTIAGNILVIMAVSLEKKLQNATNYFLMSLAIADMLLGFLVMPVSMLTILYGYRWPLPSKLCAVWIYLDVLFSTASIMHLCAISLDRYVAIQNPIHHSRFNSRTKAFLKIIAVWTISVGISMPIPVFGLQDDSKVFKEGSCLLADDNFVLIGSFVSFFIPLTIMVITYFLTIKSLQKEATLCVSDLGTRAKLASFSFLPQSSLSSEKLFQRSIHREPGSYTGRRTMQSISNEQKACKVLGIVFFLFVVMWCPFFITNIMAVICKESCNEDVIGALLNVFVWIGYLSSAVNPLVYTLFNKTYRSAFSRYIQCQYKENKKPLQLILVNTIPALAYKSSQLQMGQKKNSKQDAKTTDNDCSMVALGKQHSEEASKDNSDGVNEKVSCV

[2] = Liver microsomes stability, human
Experimental: The objective of this study was to estimate in vitro metabolic stability of representative compounds of the application in pooled human and male mouse liver microsomes. The concentrations of parent compounds in reaction systems were evaluated by LC-MS/MS for estimating the stability in pooled human and male mouse liver microsomes. The in vitro intrinsic clearances of test compounds were determined as well.
A master solution in the “Incubation Plate” containing phosphate buffer, ultra-pure H2O, MgCl2 solution and liver microsomes was made according to Table 3. The mixture was pre-warmed at 37° C. water bath for 5 minutes.
40 μL of 10 mM NADPH solution was added to each well. The final concentration of NADPH was 1 mM. The negative control samples were prepared by replacing NADPH with 40 μL of ultra-pure H2O. Samples were prepared in duplicate. Negative controls were prepared in singlet.
The reaction was started with the addition of 4 μL of 200 μM test compounds or control compounds to each master solution to get the final concentration of 2 μM. […]
All calculations were carried out using Microsoft Excel. Peak areas were determined from extracted ion chromatograms. The slope value, k, was determined by linear regression of the natural logarithm of the remaining percentage of the parent drug vs. incubation time curve.
The in vitro half-life (in vitro t1/2) was determined from the slope value: […]

[3] = Liver microsomes stability, rat

COc1ccc2[nH]cc(CCN(C)C)c2c1 [Compound 5-MeO-DMT, 5-MeO-DMT, reference compound]
RFU@10 μM [1]: 2081

O=C(O)Cc1ccccc1Nc1c(Cl)cccc1Cl [Diclofenac]
Scaled-up CLint [2]: 167.98 mL/min/kg | Scaled-up CLint [3]: 169.89 mL/min/kg

Source: patent publication US20250353827A1, “INDOLINE DERIVATIVES AS SEROTONERGIC AGENTS USEFUL FOR THE TREATMENT OF DISORDERS RELATED THERETO” (MINDSET PHARMA INC., priority 2022, published 2025)
